The text below walks through data of PMC9434700 (Journal of medicinal chemistry, 2022).

This experiment relates to other mGluRs (mGluR1, mGluR4, mGluR5, mGluR6, mGluR8). The following applies: read-out: other mGluRs EC5, see the Supporting Information.

Some results are limits rather than exact numbers.

On to `O=C(c1cnc2c(cnn2CC2CC2)c1C(F)(F)F)N1CCN(c2ccc(F)cc2F)CC1` [Compound 13, (1-(Cyclopropylmethyl)-4-(trifluoromethyl)-1H-pyrazolo[3,4-b]-pyridin-5-yl) (4-(2,4-difluorophenyl)piperazin-1-yl)methanone], for which the EC50 is more than 1000 nM.
